Laboratory results published in ChEMBL document CHEMBL1146689, “The design and synthesis of a novel quinolizidine template for potent opioid and opioid receptor-like (ORL1, NOP) receptor ligands” (2004).

Protein sequences, listed by entry. Tags and fused reporters are not part of them.
UniProt P41145, whole entry: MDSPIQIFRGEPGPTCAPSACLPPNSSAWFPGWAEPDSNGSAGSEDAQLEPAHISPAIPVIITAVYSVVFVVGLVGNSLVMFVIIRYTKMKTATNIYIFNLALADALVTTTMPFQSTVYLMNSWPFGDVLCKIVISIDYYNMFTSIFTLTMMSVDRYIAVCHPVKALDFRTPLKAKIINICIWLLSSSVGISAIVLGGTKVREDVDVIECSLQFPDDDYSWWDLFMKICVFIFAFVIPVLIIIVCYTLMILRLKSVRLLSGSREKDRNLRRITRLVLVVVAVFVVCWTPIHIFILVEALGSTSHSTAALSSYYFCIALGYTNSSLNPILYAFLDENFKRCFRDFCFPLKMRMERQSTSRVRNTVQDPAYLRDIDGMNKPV
UniProt P41146, whole entry: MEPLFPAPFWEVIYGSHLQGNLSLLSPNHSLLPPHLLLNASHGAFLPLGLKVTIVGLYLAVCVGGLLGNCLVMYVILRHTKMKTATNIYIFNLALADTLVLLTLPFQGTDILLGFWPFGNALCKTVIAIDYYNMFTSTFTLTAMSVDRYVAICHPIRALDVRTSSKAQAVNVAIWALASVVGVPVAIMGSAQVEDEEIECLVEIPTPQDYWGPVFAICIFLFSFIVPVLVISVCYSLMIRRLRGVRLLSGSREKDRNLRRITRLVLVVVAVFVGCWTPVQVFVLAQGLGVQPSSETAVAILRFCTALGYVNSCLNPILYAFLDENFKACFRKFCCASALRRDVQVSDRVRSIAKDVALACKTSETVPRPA
UniProt P35372, whole entry: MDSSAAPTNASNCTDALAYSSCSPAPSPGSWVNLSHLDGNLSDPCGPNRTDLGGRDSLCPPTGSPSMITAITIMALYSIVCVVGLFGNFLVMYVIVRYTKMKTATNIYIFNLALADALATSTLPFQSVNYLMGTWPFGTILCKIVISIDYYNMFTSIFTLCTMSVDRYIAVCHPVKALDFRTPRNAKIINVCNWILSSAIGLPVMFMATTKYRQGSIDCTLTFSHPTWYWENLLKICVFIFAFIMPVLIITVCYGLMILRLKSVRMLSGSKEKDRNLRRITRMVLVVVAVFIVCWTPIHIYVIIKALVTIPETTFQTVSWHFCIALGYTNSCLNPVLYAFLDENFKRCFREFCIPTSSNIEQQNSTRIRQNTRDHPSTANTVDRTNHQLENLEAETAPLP

Key:
[1] = target: Kappa-type opioid receptor (Homo sapiens) (UniProt P41145); assay: Stimulation of [35S]GTP-gamma-S, binding to human opioid receptor kappa 1 in cell membrane
[2] = target: Nociceptin receptor (Homo sapiens) (UniProt P41146); assay: Stimulation of [35S]GTP-gamma-S, binding to human NOP receptor in cell membrane
[3] = target: Mu-type opioid receptor (Homo sapiens) (UniProt P35372); assay: Stimulation of [35S]GTP-gamma-S, binding to human opioid receptor mu 1 in cell membrane

Row | SMILES | Stimulation [1] | Stimulation [2] | Stimulation [3]
1 | CCn1c(=O)n([C@@H]2CCN3[C@H](CCC[C@H]3c3ccccc3)C2)c2ccccc21 | 79% | 87% | –
2 | Oc1nc2ccccc2n1[C@@H]1CCN2[C@H](CCC[C@H]2c2ccccc2)C1 | 100% | 89% | 55%
